## Ab-91 heavy chain CDR variants: yeast mating affinities

Reference: Engelhart et al. 2022, doi:10.1038/s41597-022-01779-4. File: FLAb, binding data.

Binding partner: SARS-CoV-2 spike HR2 peptide, sequence PDVDLGDISGINAS.

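Variants in AAYL51 differ from the parent at up to three CDR positions; double and triple changes were sampled at random. In AlphaSeq, yeast of one mating type display the scFv and yeast of the other type display the target. Binding brings cells together so that they mate, and sequencing counts the barcode pairs among the diploids. Scores were corrected for input abundance and mapped to Kd with protein pairs of known affinity run in the same pool. The assay was run in three technical replicates.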

The variants keep the light chain, the linker and the frameworks of Ab-91 (scFv order VL, a (GGGGS)3 linker, VH).
VL: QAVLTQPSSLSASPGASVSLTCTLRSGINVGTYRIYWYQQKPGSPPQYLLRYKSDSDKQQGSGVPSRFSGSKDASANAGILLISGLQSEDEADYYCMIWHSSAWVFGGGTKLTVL
VH: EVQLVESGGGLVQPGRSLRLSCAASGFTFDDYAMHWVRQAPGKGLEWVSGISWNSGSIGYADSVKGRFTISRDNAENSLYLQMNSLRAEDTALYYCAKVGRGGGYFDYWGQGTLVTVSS

Substitutions are numbered in sequence along the VH above, starting at 1 (not Kabat). Affinities are written as log10 Kd with Kd in nM; a lower number is a better binder. Replicates are averaged; those with no signal do not enter the mean. "n.d." marks a missing value. The strain was present, yet no cells mated with the target were sequenced in that replicate, which points to weak or no binding.

changes,"log10 Kd, replicates","mean, log10 nM",signal with controls
D31I/M34H/G100R,n.d. n.d. n.d.,n.d.,0/9
I58H/G59S/A61N,n.d. n.d. n.d.,n.d.,0/9
A33Q/S55F/F106M,n.d. n.d. n.d.,n.d.,0/9
G26L/A33F/Y60P,5.11 n.d. 4.65,4.88,7/9 (4.57)
V64W,2.96 1.71 n.d.,2.34,0/9
S55I/G59C/G100M,6.34 n.d. n.d.,6.34,4/9 (5.42)
A61L/V99G/G102I,n.d. n.d. n.d.,n.d.,1/9 (4.51)
S52A/R101Q/Y105S,1.40 1.26 0.82,1.16,2/9 (4.38)
T28G/A33T/W53C,4.87 n.d. n.d.,4.87,7/9 (5.27)
I51Q/G104C/F106W,4.51 4.93 4.85,4.76,4/9 (4.95)
H35R/S63I/Y108Q,n.d. n.d. n.d.,n.d.,0/9
V64C/F106R,n.d. n.d. n.d.,n.d.,1/9 (6.05)
N54A/S57V/G100D,4.02 4.38 n.d.,4.20,1/9 (3.55)
S55T/G104R/Y108H,2.64 2.69 2.19,2.50,2/9 (4.21)
N54F/S63H/F106S,n.d. n.d. n.d.,n.d.,0/9
S52A/G59Q/S63P,n.d. 4.80 5.49,5.14,2/9 (5.54)
A61H/D62E/F106M,3.70 n.d. n.d.,3.70,2/9 (3.71)
D31F/Y32E,1.95 2.14 1.81,1.97,4/9 (4.13)
G26A/G103Q/D107Q,n.d. n.d. n.d.,n.d.,1/9 (3.82)
M34T/G56E/S63K,n.d. n.d. n.d.,n.d.,0/9
I58A/V64S/G100M,n.d. n.d. n.d.,n.d.,0/9
F27C/D30F/D107Y,n.d. 7.10 4.25,5.68,7/9 (5.20)
I51F/G56V/R101T,5.36 n.d. n.d.,5.36,1/9 (3.94)
F29P/M34L/S55H,6.49 n.d. 5.58,6.03,4/9 (4.69)
F27W/N54V,4.30 3.77 n.d.,4.04,5/9 (4.17)
D30F/H35P/G102F,n.d. n.d. n.d.,n.d.,1/9 (3.73)
G50R/G100N/Y105H,3.62 n.d. n.d.,3.62,0/9
G56Y/G59C/G102D,n.d. n.d. n.d.,n.d.,1/9 (4.37)
D31L/H35L/S63E,n.d. 5.44 n.d.,5.44,2/9 (4.69)
D62L/V64A/R101G,n.d. n.d. n.d.,n.d.,1/9 (2.25)
S52A/S57Y/G102L,4.17 n.d. n.d.,4.17,3/9 (4.45)
I51D/G59K/G104H,n.d. n.d. n.d.,n.d.,3/9 (4.81)
M34P/S63E/G103D,5.03 n.d. n.d.,5.03,1/9 (4.75)
F27D/S63D/G102E,4.15 4.47 n.d.,4.31,8/9 (5.02)
F27E/S57D/G103R,n.d. n.d. n.d.,n.d.,0/9
D31S/G100H/D107G,2.78 2.77 2.71,2.75,8/9 (4.58)

Excerpt, the final 4 entries:

changes,"log10 Kd, replicates","mean, log10 nM",signal with controls
M34P/S63E/G103D,5.03 n.d. n.d.,5.03,1/9 (4.75)
F27D/S63D/G102E,4.15 4.47 n.d.,4.31,8/9 (5.02)
F27E/S57D/G103R,n.d. n.d. n.d.,n.d.,0/9
D31S/G100H/D107G,2.78 2.77 2.71,2.75,8/9 (4.58)

Three control strains display no target. For library AAYL51, 21% of the pairings with them gave a signal, with a median of 4.54 and one signal in twenty below 3.26, so weak values seen in few replicates may be background. The control count says in how many pairings with the empty strains this scFv gave a signal, with their mean in brackets.